Data as given in PubChem BioAssay AID2716 (Broad Institute, 2010).
This is a selection; strong and weak results do not stand in their true shares. Calls of active or inactive are those of the source.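 The calls were made as follows: active = every valid replicate shows activation above 250% relative to neutral control wells; inactive = the rest, any valid replicate at or below 250%.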

assay: yeast Mot1-301 growth rescue at high temperature, primary screen, SUMOylation pathway inhibitor project, S. cerevisiae, ATP luminescence, 38.5C (AID 2716);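 also: OY570 slx delta 5 strain wells were the positive control but not used for scaling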; conditions: S. cerevisiae Mot1-301 growth rescue, at 18.8 µM, stronger effect = higher value, percent above DMSO median, 100 means doubled

SMILES | growth rescue
CCOc1ccc(C)cc1CN(CCCl)CCCl | inactive: -11.6%
O=C(NCC1(N2CCCCC2)CCCCC1)c1ccc(F)cc1 | inactive: 9.04%
CCOC(=O)N1CCC(Nc2ccc(F)cc2)CC1 | inactive: 37.6%
COc1ccc(NC2CCN(CCc3ccccc3)CC2)c(OC)c1 | inactive: 15.2%
COc1cc(C(=O)NCC2(N(C)C)CCCCC2)ccc1OC(F)F | inactive: 17.2%
CCOC(=O)N1CCC(Nc2cccc(C)c2)CC1 | inactive: -9.48%
Cc1ccc(OCC(C)C)c(CN(CCCl)CCCl)c1 | inactive: 2.5%
O=C(NCC1(N2CCCCC2)CCCCC1)c1ccc(=O)[nH]c1 | inactive: 2.64%
O=C(NCC1(N2CCCCC2)CCCCC1)c1cccs1 | inactive: -4.98%
COc1ccc(C(=O)NCC2(N3CCCCC3)CCCCC2)cc1 | inactive: -21.8%
COc1ccc(C(=O)NCC2(N3CCCCC3)CCCCC2)c(OC)c1OC | inactive: 169%
CC(C)(C)OC(=O)N1CCC(N(C(=O)c2ccccc2)c2ccc(F)cc2)CC1 | inactive: 11.8%
CSc1ccccc1C(=O)NCC1(N2CCCCC2)CCCCC1 | inactive: -4.84%
O=C(NCC1(N2CCOCC2)CCCCC1)c1cc2ccccc2o1 | inactive: 3.3%
O=C(NCC1(N2CCCCC2)CCCCC1)c1ccc(Cl)nc1 | inactive: -13%
Cc1cc(C)cc(N(C(=O)c2ccccc2)C2CCN(C(=O)OC(C)(C)C)CC2)c1 | inactive: -1.12%
CCOC(=O)N1CCC(Nc2ccc(OC)cc2)CC1 | inactive: -11.8%
O=C(OC1CN2CCC1CC2)C1c2ccccc2Oc2ccccc21 (stereo not given) | inactive: -21.9%
N#CC1(Nc2ccccc2)CCN(Cc2ccccc2)CC1 | inactive: 4.1%
O=C(NCC1(N2CCCCC2)CCCCC1)c1ccc(Cl)s1 | inactive: 0.135%
COc1ccc(Cl)cc1C(=O)NCC1(N2CCOCC2)CCCCC1 | inactive: 7.39%
COc1ccc(CN(CCCl)CCCl)cc1Cl | inactive: 188%

SMILES | growth rescue
CN(C)c1cccc(C(=O)NCC2(N3CCCCC3)CCCCC2)c1 | inactive: 15.9%
CC(C)c1ccc(NC2CCN(C(=O)OC(C)(C)C)CC2)cc1 | inactive: -15.1%
COc1cc(OC)c(C(=O)NCC2(N(C)C)CCCCC2)cc1OC | inactive: -1.42%
O=C(NCC1(N2CCOCC2)CCCCC1)c1cc(F)c(F)cc1Cl | inactive: -12.7%
O=C(NCC1(N2CCCCC2)CCCCC1)c1cncc(Br)c1 | inactive: -4.77%
CN1CCC(Nc2cccc(F)c2)CC1 | inactive: -4.76%
CCCOc1ccc(C(=O)NCC2(N(C)C)CCCCC2)cc1OC | inactive: 3.96%
O=C(NCC1(N2CCCCC2)CCCCC1)c1ccc(OC(F)F)cc1 | inactive: 111%
O=C(NCC1(N2CCCCC2)CCCCC1)c1cccc([N+](=O)[O-])c1 | inactive: 8.33%
CCN1CCC(Nc2ccc(Cl)cc2)CC1 | inactive: -12.3%
N#CC1(Nc2ccccc2)CCN(CCc2ccccc2)CC1 | inactive: 23.2%
O=C(NCC1(N2CCCCC2)CCCCC1)c1cccc(C(F)(F)F)c1 | inactive: -20.8%
CN1CCN(CCOC(=O)C(O)(c2ccccc2)c2ccccc2)CC1 | inactive: -9.49%
O=C(NCC1(N2CCOCC2)CCCCC1)c1cc(=O)[nH]c2ccccc12 | inactive: -20.9%
COc1cc(C(=O)NCC2(N3CCCCC3)CCCCC2)ccc1OC(F)F | inactive: -3.95%
CC(C)(C)OC(=O)N1CCC(N(C(=O)c2ccccc2)c2ccc(Cl)cc2)CC1 | inactive: -7.71%
N#Cc1ccc(C(=O)NCC2(N3CCCCC3)CCCCC2)cc1 | inactive: 2.69%
c1ccc(CN2CCC(Nc3ccccc3)CC2)cc1 | active: 560%
CCCN1CCC(Nc2cc(OC)cc(OC)c2)CC1 | inactive: 2650%
CN(C)C1(CNC(=O)c2cccc(C#N)c2)CCCCC1 | inactive: 9.15%
O=C(NCC1(N2CCOCC2)CCCCC1)c1cc(Br)ccc1Cl | inactive: -8.22%
COc1cc(C(=O)NCC2(N3CCOCC3)CCCCC2)cc(OC)c1C | inactive: -9.23%

SMILES | growth rescue
COc1ccc(C(=O)NCC2(N3CCOCC3)CCCCC2)cc1OC | inactive: -7.67%
N/C(=N\O)c1c(N)no[n+]1[O-] | inactive: -10.8%
CCOC(=O)N1CCC(Nc2ccc(C)cc2)CC1 | inactive: -18.8%
O=C(OC1CN2CCC1CC2)C1c2ccccc2C=Cc2ccccc21 (stereo not given) | inactive: -6.63%
CCc1cc(C(=O)NCC2(N3CCCCC3)CCCCC2)sc1C | inactive: 12.6%
CCOc1ncccc1C(=O)NCC1(N2CCOCC2)CCCCC1 | inactive: -3.07%
CN1CCC(Nc2ccc(F)c(Cl)c2)CC1 | inactive: -13.3%
CCCOc1ccc(C(=O)NCC2(N(C)C)CCCCC2)cc1 | inactive: -6.34%
CC(C)(C)OC(=O)N1CCC(Nc2ccccc2)CC1 | inactive: -7.14%
O=C(O)C1(Nc2ccccc2)CCN(Cc2ccccc2)CC1 | inactive: -11.8%
CCC(CO)(C(=O)OC1CN2CCC1CC2)c1ccccc1 (stereo not given) | inactive: -2.85%
COc1cccc(C(=O)N(c2cc(C)cc(C)c2)C2CCN(C(=O)OC(C)(C)C)CC2)c1 | inactive: -4.07%
COc1cc(OC)cc(C(=O)NCC2(N3CCOCC3)CCCCC2)c1 | inactive: -24.7%
CCCOc1ccc(C)cc1CN(CCCl)CCCl | inactive: 11.8%
CN1CCC(Nc2ccc(Cl)cc2)CC1 | inactive: 1930%
COc1cc(OC)cc(C(=O)NCC2(N3CCCCC3)CCCCC2)c1 | inactive: 12.7%
Cc1ccc(C(=O)NCC2(N3CCCCC3)CCCCC2)o1 | inactive: -7.86%
Fc1ccccc1NC1CCN(Cc2ccccc2)CC1 | inactive: -22.8%
CCN1CCC(Nc2cccc(F)c2)CC1 | inactive: -16%
O=C(NCC1(N2CCCCC2)CCCCC1)c1ccco1 | inactive: 32.3%
CN(C)c1ccc(C(=O)NCC2(N3CCCCC3)CCCCC2)cc1 | inactive: -7.35%
